For experiment [1], the target named is IKZF1 (Homo sapiens, UniProt Q13422). The experiment can be described thus: GFP-IKZF1 cellular degradation assay (eGFP fusion/mCherry reporter, Flip-In 293 cells). The settings on record: read-out: GFP IKZF1 DC50; Flip-In 293 cells stably expressing IKZF1 GFP fusion with mCherry reporter, 5 h.
Experiment [2] concerns IKZF2. In words: GFP-IKZF2 cellular degradation assay (eGFP fusion/mCherry reporter, Flip-In 293 cells). The settings on record: read-out: GFP IKZF2 DC50; Flip-In 293 cells stably expressing IKZF2 GFP fusion with mCherry reporter, 5 h. How it is done: IKZF1A and IKZF2A were subcloned into mammalian pcDNA5/FRT Vector (Ampicillin and Hygromycin B resistant) modified to contain MCS-eGFP-P2A-mCherry. Stable cell lines expressing eGFP-protein fusion and mCherry reporter were generated using Flip-In 293 system. Plasmid (0.3 μg) and pOG44 (4.7 μg) DNA were preincubated in 100 μL of Opti-MEM™ I (Gibco™, Life Technologies™) media containing 0.05 mg/mL Lipofectamine™ 2000 (Invitrogen™) for 20 min and added to Flip-In 293 cells containing 1.9 mL of DMEM media (Gibco™, Life Technologies™) per well in a 6-well plate format (Falcon, 353046). […]
The assay plate was imaged immediately using an Acumen High Content Imager (TTP Labtech) with 488 nm and 561 nm lasers in […] per well format. The resulting images were analyzed using CellProfiler (Carpenter et al., Genome Biol. 2006, 7:R100). […] First, the red and green channels were aligned and cropped to target the middle of each well (to avoid analysis of heavily clumped cells at the edges), and a background illumination function was calculated for both red and green channels of each well individually and subtracted to correct for illumination variations across the 384-well plate from various sources of error. […] The fraction of GFP-positive cells/mCherry-positive cells in each well was then calculated, and the green and red images were rescaled for visualization. […]

By UniProt entry, the sequences of proteins in these tests, tags left out. Residues count along the entry.
UniProt Q13422, 83-213 isoform 7 limits assumed: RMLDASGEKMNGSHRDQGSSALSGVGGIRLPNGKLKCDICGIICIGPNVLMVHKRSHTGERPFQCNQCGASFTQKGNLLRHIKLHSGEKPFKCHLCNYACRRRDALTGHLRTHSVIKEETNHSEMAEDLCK
UniProt Q16531, whole entry partner: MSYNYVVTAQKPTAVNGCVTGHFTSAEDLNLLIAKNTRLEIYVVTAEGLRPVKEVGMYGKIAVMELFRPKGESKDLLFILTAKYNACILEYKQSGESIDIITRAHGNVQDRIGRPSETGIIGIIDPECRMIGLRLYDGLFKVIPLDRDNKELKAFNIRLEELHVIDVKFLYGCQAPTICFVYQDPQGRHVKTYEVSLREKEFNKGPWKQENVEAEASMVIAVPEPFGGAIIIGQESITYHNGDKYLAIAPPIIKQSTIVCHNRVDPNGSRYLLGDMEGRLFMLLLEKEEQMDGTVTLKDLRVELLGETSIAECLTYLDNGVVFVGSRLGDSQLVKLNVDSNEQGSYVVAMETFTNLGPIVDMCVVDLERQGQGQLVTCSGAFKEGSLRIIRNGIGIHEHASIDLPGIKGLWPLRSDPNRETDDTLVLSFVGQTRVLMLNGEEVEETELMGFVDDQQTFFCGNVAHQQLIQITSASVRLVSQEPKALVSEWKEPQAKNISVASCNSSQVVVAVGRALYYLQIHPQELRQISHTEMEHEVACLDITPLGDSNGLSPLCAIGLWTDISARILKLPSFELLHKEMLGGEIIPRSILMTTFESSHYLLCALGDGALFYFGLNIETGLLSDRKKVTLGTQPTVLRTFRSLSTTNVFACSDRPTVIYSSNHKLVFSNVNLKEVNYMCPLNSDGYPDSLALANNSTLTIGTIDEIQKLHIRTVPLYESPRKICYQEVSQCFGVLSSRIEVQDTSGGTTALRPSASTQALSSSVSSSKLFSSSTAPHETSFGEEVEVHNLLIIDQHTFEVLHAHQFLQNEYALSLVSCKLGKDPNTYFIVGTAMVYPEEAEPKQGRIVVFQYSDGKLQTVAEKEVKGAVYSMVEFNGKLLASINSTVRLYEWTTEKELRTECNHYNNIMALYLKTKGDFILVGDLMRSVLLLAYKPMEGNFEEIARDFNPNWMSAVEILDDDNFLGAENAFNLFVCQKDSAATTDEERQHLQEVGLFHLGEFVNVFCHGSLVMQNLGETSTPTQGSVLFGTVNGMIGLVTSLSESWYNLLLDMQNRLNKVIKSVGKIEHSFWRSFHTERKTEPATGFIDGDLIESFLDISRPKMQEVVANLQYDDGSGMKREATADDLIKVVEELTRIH
UniProt Q96SW2, whole entry partner: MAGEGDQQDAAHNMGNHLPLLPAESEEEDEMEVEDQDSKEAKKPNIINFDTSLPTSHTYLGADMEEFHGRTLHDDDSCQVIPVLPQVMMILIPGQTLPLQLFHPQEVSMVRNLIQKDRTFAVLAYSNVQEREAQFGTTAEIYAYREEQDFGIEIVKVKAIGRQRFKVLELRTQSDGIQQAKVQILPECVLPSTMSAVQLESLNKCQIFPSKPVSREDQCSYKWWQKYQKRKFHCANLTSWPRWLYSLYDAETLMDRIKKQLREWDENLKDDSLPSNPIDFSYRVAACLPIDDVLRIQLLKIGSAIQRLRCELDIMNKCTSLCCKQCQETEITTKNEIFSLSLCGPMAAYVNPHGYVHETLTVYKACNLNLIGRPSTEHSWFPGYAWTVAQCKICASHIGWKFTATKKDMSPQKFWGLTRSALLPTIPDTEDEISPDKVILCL

These results are taken from US20230192644A1, “PIPERIDINE-2,6-DIONES AS SMALL MOLECULE DEGRADERS OF HELIOS AND METHODS OF USE” (DANA-FARBER CANCER INSTITUTE, INC., priority 2020, published 2023).

`Cc1ccc(NC(=O)CC(C)(N)c2cccc(NC3=CC(=O)N(C4CCC(=O)NC4=O)C3=O)c2)cc1Cl` (stereo not shown): the DC50 (commonly the concentration giving 50% degradation) in experiment [1] was 4.4 nM; in experiment [2], 24 nM.
For `Cc1ccc(NC(=O)NC2(c3cccc(NC4=CC(=O)N(C5CCC(=O)NC5=O)C4=O)c3)COC2)cc1Cl` (stereo not shown) the same measures were 0.9 nM and 1.7 nM.
